Test system: IFNγ-treated, PD-L1-expressing tumor cells (MC38)
Assay: ADCC Reporter Bioassay
Assay type: cell-based, mouse
Settings: IFNγ-treated MC38 target cells
Experimental: ADCC assay: A total of 1×10^4/well target cells MC38 or IFNγ-stimulated MC38 cells were seeded in a 96-well plate 1 day before the experiment. On the day of experiment, different amounts of PBS, IgG Fc (Thermo, cat. no.: 31205) or purified iPDL1 were added into wells containing target MC38 cells followed by the addition of 6×10^4 ADCC bioassay effector cells per well that were provided in the ADCC Reporter Bioassays kit (Promega, Madison, Wis.). After incubation for 6 h at 37° C., the plates were kept on the bench for 15 min. Then each well was added with 75 μL of Bio-Glo Luciferase reagent and kept at RT for 10 min. Luminescence values were measured using a plate reader with glow-type luminescence read capabilities.

B1: iPDL1: murine soluble PD-1 extracellular domain fused with IgG1 Fc as a PD-L1 inhibitor, SEQ ID NO:2 (protein)
chain: MWVRQVPWSFTWAVLQLSWQSGWLLEVPNGPWRSLTFYPAWLTVSEGANATFTCSLSNWSEDLMLNWNRLSPSNQTEKQAAFCNGLSQPVQDARFQIIQLPNRHDFHMNILDTRRNDSGIYLCGAISLHPKAKIEESPGAELVVTERILETSTRYPSPSPKPEGRFQPRGPTIKPCPPCKCPAPNLLGGPSVFIFPPKIKDVLMISLSPIVTCVVVDVSEDDPDVQISWFVNNVEVHTAQTQTHREDYNSTLRVVSALPIQHQDWMSGKEFKCKVNNKDLPAPIERTISKPKGSVRAPQVYVLPPPEEEMTKKQVTLTCMVTDFMPEDIYVEWTNNGKTELNYKNTEPVLDSDGSYFMYSKLRVEKKNWVERNSYSCSVVHEGLHNHHTTKSFSRTPGK
modifications: Mouse
  antibody-dependent cell-mediated cytotoxicity (ADCC): efficiently mediated antibody-dependent cell-mediated cytotoxicity

Source: US20220064672A1, “ENGINEERED ONCOLYTIC VIRUSES EXPRESSING PD-L1 INHIBITORS AND USES THEREOF” (priority 2020, published 2022)
